Experimental data: ChEMBL document CHEMBL3580653, “Development of novel CXC chemokine receptor 7 (CXCR7) ligands: selectivity switch from CXCR4 antagonists with a cyclic pentapeptide scaffold” (J Med Chem, 2015)

Protein sequences, listed by entry. Tags and fused reporters are not part of them.
UniProt P61073, whole entry: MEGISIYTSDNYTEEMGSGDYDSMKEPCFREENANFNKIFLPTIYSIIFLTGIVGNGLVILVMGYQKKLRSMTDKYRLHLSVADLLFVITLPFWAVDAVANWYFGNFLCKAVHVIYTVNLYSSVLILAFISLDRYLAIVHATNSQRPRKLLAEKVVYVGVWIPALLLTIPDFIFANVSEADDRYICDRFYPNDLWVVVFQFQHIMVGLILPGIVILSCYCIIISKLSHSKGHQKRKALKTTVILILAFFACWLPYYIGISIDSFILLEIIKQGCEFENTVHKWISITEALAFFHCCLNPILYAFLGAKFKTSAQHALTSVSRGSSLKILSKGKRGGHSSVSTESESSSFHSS

Target: C-X-C chemokine receptor type 4 (Homo sapiens, UniProt P61073)
Test: Inhibition of [125I]SDF-1alpha binding to CXCR4 (unknown origin) expressed in HEK293 cell membranes incubated for 1 hr by radioligand displacement assay
How it was run: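 Scintillation proximity binding: receptor membranes (10−20 µg/well) on WGA beads (0.25 mg/well) incubated with peptide and [125I]-SDF-1α (0.20 nM for CXCR4, 0.25 nM for CXCR7). Room temperature, 1 h. Bound radioactivity counted 1 min/well. IC50 taken from inhibition of tracer binding.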

IC50: 1200 nM
SMILES: N=C(N)NCCC[C@@H]1NC(=O)[C@H](CCCNC(=N)N)NC(=O)[C@@H](Cc2ccc(O)cc2)NC(=O)CNC(=O)[C@H](Cc2ccc3ccccc3c2)NC1=O
